Yeast mating assay 1: variants of the scFv Ab-14

From the AlphaSeq antibody data of Engelhart et al. 2022 (doi:10.1038/s41597-022-01779-4), copy in the FLAb collection.

All variants were tested on one target, the spike HR2 peptide PDVDLGDISGINAS (SARS-CoV-2).

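Phage display of a naive human antibody library on the peptide gave the parent. Variants in AAYL50 differ from the parent at up to three CDR positions; double and triple changes were sampled at random. Affinity was read by AlphaSeq, a pooled yeast mating assay with surface-displayed partners. Mating (16 h, 30 °C) was followed by selection of diploids and sequencing of their barcodes. The ratio of observed to expected reads was calibrated, replicate by replicate, on BCL2-family standards whose Kd was known from biolayer interferometry. There are three technical replicates.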

Parent scFv Ab-14: VH joined to VL by the linker GGGGSGGGGSGGGGS. Changes lie in the light chain CDRs alone.
VH: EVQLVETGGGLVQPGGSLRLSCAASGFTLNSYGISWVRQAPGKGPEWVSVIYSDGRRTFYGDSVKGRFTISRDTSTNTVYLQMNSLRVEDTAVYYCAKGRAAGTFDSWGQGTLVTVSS
VL: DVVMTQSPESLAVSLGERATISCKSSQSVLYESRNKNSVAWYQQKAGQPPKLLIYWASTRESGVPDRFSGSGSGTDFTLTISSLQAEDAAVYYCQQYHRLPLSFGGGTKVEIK

Positions count from residue 1 of the parent VL; S25P puts P in place of S.
Scale: log10 of Kd in nM, estimated from mating counts; low values are strong binders.
A mean of the replicates is given; it leaves out those without a signal.
"ND" marks a missing value. The strain was present, yet no cells mated with the target were sequenced in that replicate, which points to weak or no binding.

changes	log10 Kd, replicates	log10 Kd (nM), mean	control signals
S25P+V39Q+A57N	5.08 / 4.40 / ND	4.74	5 of 9 (4.70)
S26D+S62M+R99L	1.46 / 1.40 / 1.27	1.38	3 of 9 (4.45)
S58T+T59M+L100K	ND / 4.79 / ND	4.79	1 of 9 (3.48)
V29H+L102H	3.10 / 2.74 / 2.97	2.94	5 of 9 (4.80)
W56R+S58C+Q96V	ND / 4.44 / 3.25	3.85	0 of 9
E32H+N35L+A57I	5.47 / ND / 4.59	5.03	3 of 9 (3.73)
Q27M+V29K+S58C	2.68 / 3.88 / 3.83	3.46	0 of 9
V29C+H98G+P101I	6.72 / 3.98 / ND	5.35	4 of 9 (4.29)
S26G+V29Y	2.88 / 2.14 / 2.38	2.47	3 of 9 (3.91)
R99E+S103A	0.95 / 1.56 / 1.08	1.20	0 of 9
S26N+E32A+P101D	3.14 / 2.82 / 2.92	2.96	3 of 9 (4.05)
N37T+A40W+T59V	3.02 / ND / ND	3.02	0 of 9
S25M+Q95F+R99L	1.03 / 1.11 / 1.03	1.06	0 of 9
K24W+Q27H+L100F	2.33 / 2.02 / 4.15	2.84	1 of 9 (5.38)
S28E+S38H+A57V	1.60 / 1.69 / 1.85	1.71	1 of 9 (4.17)
Q27C+S33P+V39Y	ND / ND / 4.65	4.65	1 of 9 (2.74)
S28G+S38N+L102F	0.25 / 0.62 / 0.57	0.48	0 of 9
V29I+N35R+S58Y	3.40 / 2.03 / 4.10	3.18	0 of 9
A57W+T59G+L100K	2.33 / 4.08 / ND	3.20	0 of 9
N37T+T59R+S62K	ND / ND / ND	ND	1 of 9 (3.69)
R60C+E61W+Y97K	ND / ND / ND	ND	0 of 9
N37M+S38C+V39R	ND / ND / ND	ND	2 of 9 (2.85)
Y31P+S38E+V39P	ND / ND / 4.50	4.50	1 of 9 (4.25)
E32K+K36E+V39Y	1.95 / 2.54 / ND	2.24	2 of 9 (3.03)
S26V+E32Q+R34H	1.07 / 1.28 / 1.40	1.25	3 of 9 (4.11)
E32L+S62P+P101A	ND / ND / ND	ND	0 of 9
K24N+L30R+H98F	1.13 / 1.35 / 1.39	1.29	1 of 9 (4.34)
Y31K+Q96R+H98I	4.97 / ND / ND	4.97	2 of 9 (4.57)
K24M+R34F+L102K	ND / ND / ND	ND	0 of 9
S25E+S26F+N35R	5.91 / 3.43 / ND	4.67	2 of 9 (3.71)
K24Q+S28K+Y97F	ND / 2.70 / ND	2.70	0 of 9
V29R+S33G+R60C	ND / ND / ND	ND	1 of 9 (3.36)
S26K+Q27Y+Y97Q	3.92 / 3.24 / 3.85	3.67	5 of 9 (4.82)
Y31V+N37D+H98S	0.88 / 1.03 / 0.90	0.94	5 of 9 (4.66)
S28N+K36M+S103E	1.47 / 1.72 / 1.92	1.70	3 of 9 (4.94)
E32Q+K36I	1.82 / 1.67 / 1.89	1.79	4 of 9 (4.24)
L30P+Y31E+R34Q	0.58 / 0.77 / 0.86	0.74	0 of 9
S28M+E32H+T59A	3.58 / 2.58 / ND	3.08	2 of 9 (2.97)
N37A+Q95Y+Q96R	1.36 / 1.22 / 1.45	1.34	0 of 9
L30H+H98R+S103I	4.23 / ND / ND	4.23	2 of 9 (3.75)
Q27S+R99V+L102Q	1.92 / 2.12 / 2.45	2.16	2 of 9 (3.13)
R34P+R60N+L100N	ND / 3.25 / ND	3.25	2 of 9 (4.85)
S33C+E61N+L102M	ND / ND / 4.22	4.22	0 of 9
K36E+N37E+A57Y	ND / ND / ND	ND	0 of 9
N35V+V39L+W56T	2.51 / 2.00 / 3.16	2.56	1 of 9 (4.03)
S25L+Q27G+S38R	0.74 / 0.90 / 0.64	0.76	0 of 9
K36C+T59C+Y97H	ND / ND / ND	ND	0 of 9
R34G+W56F+P101C	1.25 / 1.33 / 1.44	1.34	5 of 9 (4.62)
W56G+A57V+H98Q	-0.43 / -0.05 / -0.33	-0.27	7 of 9 (5.43)
S33T	0.85 / 1.10 / 1.03	0.99	0 of 9

Excerpt, the first 6 entries:

changes	log10 Kd, replicates	log10 Kd (nM), mean	control signals
S25P+V39Q+A57N	5.08 / 4.40 / ND	4.74	5 of 9 (4.70)
S26D+S62M+R99L	1.46 / 1.40 / 1.27	1.38	3 of 9 (4.45)
S58T+T59M+L100K	ND / 4.79 / ND	4.79	1 of 9 (3.48)
V29H+L102H	3.10 / 2.74 / 2.97	2.94	5 of 9 (4.80)
W56R+S58C+Q96V	ND / 4.44 / 3.25	3.85	0 of 9
E32H+N35L+A57I	5.47 / ND / 4.59	5.03	3 of 9 (3.73)

For reference, the parent read 0.65 as the reference entry and 1.68 as a member of this library.
Empty control strains, which show no peptide, gave a signal in 18% of pairings with library AAYL50; the median was 4.19 and 95% of these signals were weaker than 2.99. No background was subtracted. The control count says in how many pairings with the empty strains this scFv gave a signal, with their mean in brackets.